# AlphaSeq binding of Ab-14 heavy chain variants to a spike HR2 peptide

Reference: Li et al. 2023, doi:10.1038/s41467-023-39022-2. File: FLAb, binding data.

All variants were tested on one target, the spike HR2 peptide PDVDLGDISGINAS (SARS-CoV-2).

Parent scFv Ab-14: VH joined to VL by a 15-residue (Gly4Ser)3 linker. Changes lie in the heavy chain CDRs alone.
VH: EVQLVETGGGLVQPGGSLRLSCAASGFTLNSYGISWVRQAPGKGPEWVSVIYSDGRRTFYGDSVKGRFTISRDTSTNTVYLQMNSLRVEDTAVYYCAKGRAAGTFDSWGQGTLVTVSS
VL: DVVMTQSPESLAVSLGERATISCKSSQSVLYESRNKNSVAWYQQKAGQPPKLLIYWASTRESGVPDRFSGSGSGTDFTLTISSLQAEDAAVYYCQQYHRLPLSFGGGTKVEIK

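This is the validation round: designs drawn from the data on random variants, tested in the same kind of assay. Several design methods are mixed in this list. The scFvs were displayed on barcoded MATa yeast, the peptide on MATalpha yeast. Pairs that bind mate more often; barcode pairs of the diploids are counted by sequencing. Scores were corrected for input abundance and mapped to Kd with protein pairs of known affinity run in the same pool. Mating was done six times.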

Each variant is given by its three heavy chain CDRs, as the data file delimits them; those of the parent are GFTLNSYGIS, VIYSDGRRTFYGDSVK, GRAAGTFDS. This list holds designs with more than six substitutions. Each Kd is an estimate from the mating assay, the geometric mean of the replicates in which the pair was seen; lower is stronger. A pair that was not seen in any replicate is written "no signal"; this usually means weak binding, but a binder can also be missed. The range of this assay differs from that of the first round, and the authors advise against merging the two. Of ten entries with the parent sequence, four were seen in most replicates (averages 2.2 nM to 240 nM), three in one and three in none, so single entries are noisy. Background: pairings of all heavy chain designs with three empty control strains gave a value in 1% of cases (median 120 nM, 5th percentile 7.0 nM). Values in that range, when seen in few replicates, are hard to tell from nonspecific mating. For each scFv, signals with the empty controls are counted beside the result. In the paper, a design with two or fewer of six values counts as a poor binder.

The variant GFQLDEYGIS / VIYADGIRQYYAQKFK / GYNSFDMTV gave no signal (0 of 6 replicates; controls 0 of 18).
The variant GFDLNEYGIS / VIYADGRRTAYTDSVK / GTFAGTFDV gave 250 pM (6 of 6 replicates; controls 1 of 18).
The variant GFDLESYGIS / VIYADGRRTFYSDSVK / GANAGTFDI gave 450 pM (6 of 6 replicates; controls 0 of 18).
The variant GFDLKEYGIS / VIYADGERAGYADNVK / GEWGGKFLV gave no signal (0 of 6 replicates; controls 0 of 18).
The variant GFDLDEYGIS / VIYADGRRTFYADSVK / GEVAGTFDA gave 650 pM (6 of 6 replicates; controls 0 of 18).
The variant GFTLNDYGYS / VIYFDGCRTFYIDSVK / RRSAGTFDS gave 210 nM (1 of 6 replicates; controls 0 of 18).
The variant GFTLNEYGIS / VIYSDGRNTWYTDSAK / GREAGTFDV gave 1.4 nM (1 of 6 replicates; controls 0 of 18).
The variant GFDLNEYGIS / VIYADGRRTFYVDSVK / GANAGTFDV gave 260 pM (6 of 6 replicates; controls 1 of 18).
The variant GFDLKEYGIS / VIYADGMRQVYINSFK / GDSAGIINF gave no signal (0 of 6 replicates; controls 0 of 18).
The variant GFDLNEYGIS / VIYADGMRTSYADSVK / GQVAGTFDV gave 34 nM (5 of 6 replicates; controls 0 of 18).
The variant GFQLDEYGIS / VIYADGRRTFYSDSVK / GSTAGTFDV gave 320 pM (6 of 6 replicates; controls 1 of 18).
The variant GFDLNEYGIS / VIYADGVRTAYADNVK / GEVAGTFDQ gave 420 pM (6 of 6 replicates; controls 0 of 18).
The variant GFDLNEYGIS / VIYADGKRKAYADDVK / GNQAGTFDV gave 380 pM (6 of 6 replicates; controls 0 of 18).
The variant GFDINEYGIS / VIYADGRRTAYADSVK / GEAAGTFDS gave 560 pM (6 of 6 replicates; controls 0 of 18).
The variant GFDLNEYGIS / VIYADGSRTAYADSVK / GNQAGTFDV gave 480 pM (6 of 6 replicates; controls 0 of 18).
The variant GFDLNEYGIS / VIYADGQRTFYSDSVK / GEIAGTFDV gave 390 pM (6 of 6 replicates; controls 0 of 18).
The variant GFQLDEYGIS / VIYADGMRQSYCENVK / GVHGCTFGL gave no signal (0 of 6 replicates; controls 0 of 18).
The variant GFDLNEYGIS / VIYADGMRTAYADSVK / GNSAGTFDI gave 410 pM (6 of 6 replicates; controls 0 of 18).
The variant GFNLDEYGIS / VIYADGRRTFYQDSVK / GEVAGTFDI gave 110 pM (6 of 6 replicates; controls 0 of 18).
The variant GFDLNEYGIS / VIYADGRRTSYTDSVK / GEAAGTFNV gave 380 pM (6 of 6 replicates; controls 0 of 18).
The variant GFDLNEYGIS / VIYADGVRTQYIDSVK / GETAGTFDS gave 640 pM (6 of 6 replicates; controls 0 of 18).
The variant KFYLNSYGIN / VIYSDGIRTFYDDSVK / GQLAGTFDS gave no signal (0 of 6 replicates; controls 0 of 18).
The variant GFDINEYGIS / VIYADGVRTFYADSVK / GQTAGTFDV gave 220 pM (6 of 6 replicates; controls 1 of 18).
The variant GFHLNSYGIS / VIYSDGYRVAYNDSVK / GRIALTFDS gave no signal (0 of 6 replicates; controls 0 of 18).
The variant GFDLNEYGIS / VIYADGVRTAYADSVK / GKVAGTFDV gave 590 pM (6 of 6 replicates; controls 0 of 18).
The variant GFDLNEYGIS / VIYADGVRTFYSDSVK / GTNAGTFDM gave 52 pM (6 of 6 replicates; controls 1 of 18).
The variant GFDLNEYGIS / VIYADGRRTFYADSVK / GQVAGIFNV gave 1.7 nM (6 of 6 replicates; controls 0 of 18).
The variant GFDLNEYGIS / VIYADGVRTAYADDVK / GNNAGTFDM gave 900 pM (6 of 6 replicates; controls 2 of 18).
The variant GFDLNEYGIS / VIYADGRRTFYTDSVK / GNMAGTFDV gave 200 pM (6 of 6 replicates; controls 2 of 18).
The variant GNNLEEYGIS / VIYADGMRTAAVDSVK / GDQSGTVVY gave no signal (0 of 6 replicates; controls 0 of 18).
The variant GFDLNEYGIS / VIYADGRRTAYSDSVK / GEMGGTFDV gave 1.1 nM (6 of 6 replicates; controls 0 of 18).
The variant GFDLDEYGIS / VIYADGRRTFYADSVK / GSNAGTFLM gave 8.2 nM (2 of 6 replicates; controls 0 of 18).
The variant GFDLNEYGIS / VIYADGMRKAYADSVK / GNVAGTFDL gave 270 pM (6 of 6 replicates; controls 0 of 18).
The variant GFDLEEYGIS / VIYADGRRTAYIDSVK / GEAAGTFDV gave 810 pM (6 of 6 replicates; controls 0 of 18).
The variant GFNLEEYGIS / VIYADGRRQFYVDTVK / GSDDGLNAM gave no signal (0 of 6 replicates; controls 0 of 18).
The variant GFDLNEYGIS / VIYADGMRKAYVDSVK / GENAGTFDV gave 260 pM (6 of 6 replicates; controls 0 of 18).